The text below walks through data of PubChem BioAssay AID651707 (NMMLSC, 2012).

This is a selection; strong and weak results do not stand in their true shares. Some of these compounds have results that are not shown, active ones among them. The source made the active and inactive calls.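 Rule for the calls: active = over 5% cells positive for green fluorescent reporter, or over 2% positive for both it and APC stain; inactive = the rest, inconclusive results apart.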

A short description of this experiment: fluorescent artefacts in myeloid progenitor cells – cell-based, flow cytometry, GFP/APC, Cherry Pick01, artefact control for AML myeloid differentiation project, confirmation (AID 651707).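 Note: range taken on the double positive population between DMSO and positive control.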 Particulars: ER-HoxA9 myeloid progenitors, no estrogen, GFP autofluorescence flow cytometry; active compounds read high; vehicle wells 0%, positive control 100%. On the technique in general: In flow cytometry, cells or beads pass a laser one at a time.
With `CCN(CC)CC(C)C(C)OC(=O)C(O)(c1ccccc1)c1ccccc1` (stereo unspecified), the fluorescence response is inactive: 0%.
